The list shows a part of the results, in another mix than the full data. Calls of active or inactive are those of the source.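 How the source made its calls: active means lipid droplet intensity inhibited by at least 50%, with more than 500 cells counted; inconclusive means wells with under 300 cells, treated as cytotoxic; inactive means the rest.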
Test: oleate-induced lipid droplet accumulation in AML12 cells – imaging, high-throughput imaging, BODIPY stain, primary screen (AID 1656)
Details: AML12 mouse hepatocytes, oleate lipid droplets, at 6.5 µM, active compounds read high

Row | SMILES | inhibition
1 | Nc1cccc2c([As](=O)(O)O)cccc12 | inactive: 16.8%
2 | Cc1ccc(C)c(NP(C)(=O)Oc2ccccc2)c1 (configuration not stated) | inactive: -15.5%
3 | CCCOP(=S)(Nc1nc(N)cc(=O)[nH]1)OCCC | inactive: -2.9%
4 | CCOP(=O)(Nc1cccc2ccccc12)OCC | inactive: -17.2%
5 | O=C(OC1CN2CCC1CC2)c1ccc(Cl)cc1 (configuration not stated) | inactive: 11.2%
6 | O=[As](O)(O)c1cccnc1 | inactive: -2.5%
7 | COc1cc(C(=O)NCC2(N3CCOCC3)CCCCC2)cc(Cl)c1OC(C)C | inactive: -11.2%
8 | COc1ccccc1OP(C)(=O)Nc1cccc(Br)c1 (configuration not stated) | inactive: -16%
9 | CS(=O)(=O)c1ccc(Cl)c(NC(=O)COC(=O)C(O)(c2ccccc2)c2ccccc2)c1 | inactive: -7.1%
10 | Cc1cccc(OCC(=O)OC2CN3CCC2CC3)c1 (configuration not stated) | inactive: 6.2%
11 | O=[As](O)(c1cccc(O)c1)c1cccc(O)c1 | inactive: 5.9%
12 | Cc1cc(C)cc(OP(C)(=O)Nc2ccc(C)cc2C)c1 (configuration not stated) | inactive: -5.4%
13 | CCOC(=O)c1ccc(NP(C)(=O)Oc2cc(C)cc(C)c2)cc1 (configuration not stated) | inactive: -12.5%
14 | CC(C)/C=N\N=C(\N)N[N+](=O)[O-] | inactive: 17.8%
15 | CN(C(=O)Cc1ccc(Cl)c(Cl)c1)[C@@H]1CCCC[C@H]1N1CCCC1 | inactive: -2.1%
16 | O=[As](O)(c1ccccc1Br)c1ccccc1Br | inactive: -5%
17 | O=P1(Nc2ccccn2)COc2ccccc2OC1 | inactive: -2.9%
18 | CCC1=CC2Cc3nc4ccc(Cl)cc4c(N)c3C(C1)C2 (configuration not stated) | inactive: -20.1%
19 | O=[N+]([O-])c1cc([N+](=O)[O-])c(-n2nnc3ccccc32)c([N+](=O)[O-])c1 | inactive: 3%

Row | SMILES | inhibition
20 | CCOP(=O)(NC(=NC(C)c1ccccc1)NC(C)c1ccccc1)OCC (configuration not stated) | inactive: -4.4%
21 | CCOP(=O)(Nc1ccc(C)cn1)OCC | inactive: -2.7%
22 | CC(C)(C)C(=O)NC(Sc1ncccn1)C(Cl)(Cl)Cl (configuration not stated) | inactive: -11%
23 | CN1CCCCC1COC(=O)C1(O)c2ccccc2CCc2ccccc21 (configuration not stated) | inactive: -13.1%
24 | O=P1(Nc2ncccn2)COc2ccccc2OC1 | inactive: 4.8%
25 | CCCOc1ccc(NP(C)(=O)Oc2ccc(Cl)cc2)cc1 (configuration not stated) | inactive: -25.5%
26 | CP(=O)(Nc1ccc(SC(F)(F)F)cc1)Oc1ccccc1 (configuration not stated) | inactive: -22.5%
27 | Nc1cccc([As](=O)(O)c2ccccc2)c1 | inactive: 8.3%
28 | Cc1ccc(OCC(=O)OC2CN3CCC2CC3)cc1 (configuration not stated) | inactive: 14.5%
29 | O=[As](O)(c1cccs1)c1cccs1 | inactive: 28.4%
30 | O=P1(Nc2ccc(Br)cn2)COc2ccccc2OC1 | inactive: 2.2%
31 | Cc1nn(-c2ccccc2)c2c1P(=O)(N1CCOCC1)N(C)C(c1ccccc1)=N2 (configuration not stated) | inactive: -0.2%
32 | CC1CCC(C(C)C)C(OP(=O)(Nc2ccccn2)c2ccccc2)C1 (configuration not stated) | inactive: 4.3%
33 | COc1cc(C2NCCC3(OCCO3)C2(C)C)cc(OC)c1OC.O=[N+]([O-])c1cc([N+](=O)[O-])c(O)c([N+](=O)[O-])c1 (configuration not stated) | inactive: -4.5%
34 | CN(C)C1(CNC(=O)c2ccc(S(C)(=O)=O)cc2)CCCCC1 | inactive: -1.6%
35 | O=[N+]([O-])c1cc([N+](=O)[O-])c(Nc2nnnn2CCO)c([N+](=O)[O-])c1 | inactive: 8.4%
36 | CCOC(=O)C(CC)C1=NC(C)(C)Cc2ccccc21.O=[N+]([O-])c1cc([N+](=O)[O-])c(O)c([N+](=O)[O-])c1 (configuration not stated) | inactive: -33.1%
37 | O=C(/C=C/c1ccccc1)OC1CN2CCC1CC2 (configuration not stated) | inactive: 22.1%
